Reported melting point values for industrial, environmental and drug-like chemicals

Melting points are in °C.

For O=C(O)c1cc(S(=O)(=O)Cl)ccc1Br [2-Bromo-5-(chlorosulfonyl)benzoic acid] the data give mp 116 °C.
For COc1cc(C)cc(OC)c1C=O [2,6-dimethoxy-4-methylbenzaldehyde] the data give mp 92.5 °C.
For COc1cc(NC(=O)CC#N)c(Cl)cc1Cl [2-Cyano-N-(2,4-dichloro-5-methoxyphenyl)acetamide] the data give mp 201.9 °C.
For CC(C)Oc1ccc(C#N)cc1 [4-isopropoxybenzonitrile] the data give mp 51 °C.
For Cc1cc(C)c2nc(Cl)cc(C)c2c1 [2-chloro-4,6,8-trimethylquinoline] the data give mp 130 °C.
For Cc1cc(C(N)=O)c2ccccc2n1 [2-Methylquinoline-4-carboxamide] the data give mp 247 °C.
For Cc1ccc(C(=O)O)cc1S(N)(=O)=O [4-methyl-3-sulfamoylbenzoic acid] the data give mp 276 °C.
For O=Cc1csc(-c2cccc(Br)c2)n1 [2-(3-Bromophenyl)-1,3-thiazole-4-carbaldehyde] the data give mp 100 °C.
For CCOc1cc(C=O)cc(Br)c1OC [3-bromo-5-ethoxy-4-methoxybenzaldehyde] the data give mp 53 °C.
For COc1cc(Br)c(S(=O)(=O)Cl)cc1OC [2-Bromo-4,5-dimethoxybenzene-1-sulfonyl chloride] the data give mp 93 °C.
For O=C(O)c1ccccc1-n1cnnn1 [2-(1H-tetrazol-1-yl)benzoic acid] the data give mp 192 °C.
For CC(C)(C)n1ncc(C(=O)O)c1C(F)(F)F the data give mp 111 °C.
For Nc1cc(S(=O)(=O)N2CCOCC2)ccc1Cl [2-Chloro-5-(morpholine-4-sulfonyl)aniline] the data give mp 178 °C.
For Cc1ccc2c(c1C)NC(=O)C2=O [6,7-dimethyl-1H-indole-2,3-dione] the data give mp 230 °C.
For CCNS(=O)(=O)c1ccc(C(=O)O)cc1 [4-[(Ethylamino)sulfonyl]benzoic acid] the data give mp 220 °C.
For C=CC(=C)CCC=C(C)C [Myrcene] the data give mp -10 °C.
For CNS(=O)(=O)c1ccc(CN)cc1 [4-(Aminomethyl)-N-methylbenzene-1-sulfonamide] the data give mp 112 °C.
For N#Cc1ccccc1P(c1ccccc1)c1ccccc1 [Benzonitrile, 2-(diphenylphosphino)-] the data give mp 149 °C.
For CCCCCCCCC(=O)OC [Methyl n-nonanoate] the data give mp -34.5 °C.
For CCCCCCOC(=O)c1ccc(N)cc1 [Hexyl 4-aminobenzoate] the data give mp 62 °C.
For CC(=O)Cc1ccc(-c2ccccc2)cc1 [1-biphenyl-4-yl-propan-2-one] the data give mp 50 °C.
For O=C(O)c1ccc(-n2ncc(Cl)c(Cl)c2=O)cc1 [4-(4,5-dichloro-6-oxopyridazin-1(6H)-yl)benzoic acid] the data give mp 315 °C.
For Nc1ccc(-c2nc3cc(N)ccc3[nH]2)cc1 [2-(4-Aminophenyl)-1H-benzimidazol-2-amine] the data give mp 235 °C.
For O=C(C(Cl)c1ccccc1)N1CCCCC1 (centres undefined) [1-[chloro(phenyl)acetyl]piperidine] the data give mp 68.5 °C.
For Cc1ccc(NC(=N)O)cc1C [N-(3,4-Dimethylphenyl)carbamimidic acid] the data give mp 171 °C.
For COC(=O)c1cc(C)n(C)c1C [methyl 1,2,5-trimethyl-1H-pyrrole-3-carboxylate] the data give mp 116.5 °C.
For O=C(O)CN1CCCC1=O [(2-oxopyrrolidin-1-yl)acetic acid] the data give mp 130 °C.
For Cc1c(C(=O)O)oc2c(F)cccc12 [7-Fluoro-3-methyl-benzofuran-2-carboxylic acid] the data give mp 237 °C.
For COc1ccc2cc(C(=O)CBr)ccc2c1 [2-Bromoacetyl-6-methoxynaphthalene] the data give mp 109 °C.
For O=C1OC(=O)c2cc(Oc3ccc(C(c4ccc(Oc5ccc6c(c5)C(=O)OC6=O)cc4)(C(F)(F)F)C(F)(F)F)cc3)ccc21 the data give mp 228 °C.
For O=C(O)Cn1cnc2ccccc2c1=O [(4-Oxo-4H-quinazolin-3-yl)-acetic acid] the data give mp 242 °C.
For Nc1sc2c(c1-c1nc3ccccc3s1)CCCC2 the data give mp 102 °C.
For CCOc1cc(C(=O)O)c(N)cc1OC [2-amino-5-ethoxy-4-methoxybenzoic acid] the data give mp 186 °C.
For Nc1ccc(C(=O)NCCO)cc1 [4-amino-N-(2-hydroxyethyl)benzamide] the data give mp 116 °C.
For O=C(O)CCNc1ccccc1 [N-Phenyl-beta-alanine] the data give mp 58 °C.
For O=C1Nc2cccnc2N(C(=O)CCl)c2ccccc21 the data give mp 192 °C.

The 3 highest values of mp among the entries above:

The entry for O=C(O)c1ccc(-n2ncc(Cl)c(Cl)c2=O)cc1 [4-(4,5-dichloro-6-oxopyridazin-1(6H)-yl)benzoic acid] lists mp 315 °C.
The entry for Cc1ccc(C(=O)O)cc1S(N)(=O)=O [4-methyl-3-sulfamoylbenzoic acid] lists mp 276 °C.
The entry for Cc1cc(C(N)=O)c2ccccc2n1 [2-Methylquinoline-4-carboxamide] lists mp 247 °C.

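The OPERA project collected these measurements from public sources as training and test data for property models. The files give a single number for a compound and property, which may rest on several reports. Conditions of the individual experiments are not part of the data. Where a salt, mixture or single isomer is drawn, the source does not say that exactly this form was tested. Unmarked limits or estimates from the upstream databases cannot be ruled out.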

From the experimental data distributed with OPERA 2.9.